Literature values in patent US20190022259A1, “Use of 99mTc-tilmanocept and related molecular constructs for identifying and diagnosing malignant tumors and for monitoring therapeutic anti-tumor interventions” (Navidea Biopharmaceuticals, Inc., priority 2017, published 2019).

By UniProt entry, the sequences of proteins in these tests, tags left out. Residues count along the entry.
UniProt P22897, 19-1456, species assumed: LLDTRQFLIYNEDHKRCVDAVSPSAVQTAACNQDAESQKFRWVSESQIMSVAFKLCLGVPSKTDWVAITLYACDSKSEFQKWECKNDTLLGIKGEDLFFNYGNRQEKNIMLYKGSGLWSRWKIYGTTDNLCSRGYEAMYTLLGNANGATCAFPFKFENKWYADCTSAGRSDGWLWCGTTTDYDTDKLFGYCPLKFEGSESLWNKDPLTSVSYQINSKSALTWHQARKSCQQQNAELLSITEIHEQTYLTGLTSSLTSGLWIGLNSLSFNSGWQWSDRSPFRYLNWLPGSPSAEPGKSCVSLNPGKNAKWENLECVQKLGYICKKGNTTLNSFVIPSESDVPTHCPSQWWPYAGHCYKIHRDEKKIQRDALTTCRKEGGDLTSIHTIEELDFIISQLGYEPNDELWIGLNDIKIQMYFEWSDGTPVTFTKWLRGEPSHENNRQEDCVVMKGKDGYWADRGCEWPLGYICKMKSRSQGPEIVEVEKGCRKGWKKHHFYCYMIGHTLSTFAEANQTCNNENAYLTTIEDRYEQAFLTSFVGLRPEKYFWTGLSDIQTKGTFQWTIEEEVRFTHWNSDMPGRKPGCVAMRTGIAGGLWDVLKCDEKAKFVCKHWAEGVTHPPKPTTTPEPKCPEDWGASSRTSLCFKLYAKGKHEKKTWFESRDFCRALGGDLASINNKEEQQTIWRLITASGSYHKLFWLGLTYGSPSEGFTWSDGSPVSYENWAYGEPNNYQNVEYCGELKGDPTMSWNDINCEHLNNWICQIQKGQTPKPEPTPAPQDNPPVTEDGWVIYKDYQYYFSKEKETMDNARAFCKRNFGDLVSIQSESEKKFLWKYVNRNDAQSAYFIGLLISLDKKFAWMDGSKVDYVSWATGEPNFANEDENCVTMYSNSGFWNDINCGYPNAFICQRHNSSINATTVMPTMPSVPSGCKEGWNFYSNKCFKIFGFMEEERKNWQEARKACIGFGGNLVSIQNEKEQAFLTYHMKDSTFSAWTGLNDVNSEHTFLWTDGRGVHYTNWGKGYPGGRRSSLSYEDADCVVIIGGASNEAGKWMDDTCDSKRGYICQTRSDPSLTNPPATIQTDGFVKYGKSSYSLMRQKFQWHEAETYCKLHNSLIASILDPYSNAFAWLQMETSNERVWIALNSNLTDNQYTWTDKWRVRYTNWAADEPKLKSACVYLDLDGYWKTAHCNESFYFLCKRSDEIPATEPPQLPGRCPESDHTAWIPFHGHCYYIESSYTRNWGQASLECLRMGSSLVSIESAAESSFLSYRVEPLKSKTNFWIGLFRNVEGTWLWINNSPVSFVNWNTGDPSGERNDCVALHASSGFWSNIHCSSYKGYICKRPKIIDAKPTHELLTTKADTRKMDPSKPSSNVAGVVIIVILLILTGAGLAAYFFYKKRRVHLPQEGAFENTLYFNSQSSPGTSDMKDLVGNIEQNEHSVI

Molecular target: CD206 (Homo sapiens, UniProt P22897)
Details: tilmanocept and CD206; cited from earlier work

dextran 3-[(2-aminoethyl)thio]propyl 17-carboxy-10,13,16-tris(carboxymethyl)-8-oxo-4-thia-7,10,13,16-tetraazaheptadec-1-yl 3-[[2-[[1-imino-2-(D-mannopyranosylthio)ethyl]amino]ethyl]thio]propyl ether complexes [tilmanocept]
Kd: 0.03 nM
